The target in this test is T1, Cytochrome P450 1B1 (Homo sapiens, UniProt Q16678).
T1 sequence (Q16678 whole entry): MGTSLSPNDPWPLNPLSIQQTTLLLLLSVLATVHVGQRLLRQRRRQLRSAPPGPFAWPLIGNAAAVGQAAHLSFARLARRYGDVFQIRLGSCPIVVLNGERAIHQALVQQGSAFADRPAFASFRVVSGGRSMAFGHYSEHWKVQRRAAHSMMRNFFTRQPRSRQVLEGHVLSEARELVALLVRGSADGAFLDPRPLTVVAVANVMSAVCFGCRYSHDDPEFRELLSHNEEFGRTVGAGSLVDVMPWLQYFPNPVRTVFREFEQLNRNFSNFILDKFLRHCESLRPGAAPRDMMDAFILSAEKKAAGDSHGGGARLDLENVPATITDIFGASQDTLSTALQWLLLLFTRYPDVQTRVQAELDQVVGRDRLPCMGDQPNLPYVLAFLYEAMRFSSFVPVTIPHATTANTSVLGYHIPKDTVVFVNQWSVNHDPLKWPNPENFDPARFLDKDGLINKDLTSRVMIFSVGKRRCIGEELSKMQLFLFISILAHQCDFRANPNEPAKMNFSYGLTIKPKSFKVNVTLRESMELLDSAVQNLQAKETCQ
Briefly: Binding affinity to human C-terminal 4His-tagged CYP1B1 expressed in Escherichia coli DH5alpha assessed as spectral dissociation constant by spectrophotometric analysis. The settings on record: read-out: Ks.

SMILES strings stand for the structures. pKd: −log10 of the molar value.

For `O=c1cc(-c2ccccc2)oc2c1ccc1ccccc12` [ALPHA-NAPHTHOFLAVONE], the pKd is 6.15.

The record behind these values is ChEMBL document CHEMBL4308906, “Design and synthesis of selective CYP1B1 inhibitor via dearomatization of α-naphthoflavone” (Bioorg Med Chem, 2019).
